# Patent US20260137790A1, “MIXED VASOPRESSIN RECEPTOR AGONIST-ANTAGONIST FOR MODULATING MEAN ARTERIAL PRESSURE” (FERRING B.V., priority 2022, published 2026)
# Chains of the proteins cited; added tags and fusions are not shown.
# UniProt Q00788, whole entry: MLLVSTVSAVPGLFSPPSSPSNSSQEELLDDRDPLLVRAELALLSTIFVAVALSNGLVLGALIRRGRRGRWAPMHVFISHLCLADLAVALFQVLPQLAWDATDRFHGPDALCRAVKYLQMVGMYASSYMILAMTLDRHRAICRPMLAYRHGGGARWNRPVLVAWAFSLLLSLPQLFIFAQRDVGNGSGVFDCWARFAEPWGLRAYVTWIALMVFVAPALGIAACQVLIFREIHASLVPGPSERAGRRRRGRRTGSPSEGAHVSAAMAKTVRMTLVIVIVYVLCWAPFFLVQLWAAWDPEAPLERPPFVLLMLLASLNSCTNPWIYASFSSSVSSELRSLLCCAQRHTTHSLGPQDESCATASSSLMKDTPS
# Key:
# rV2 = target: T1, rV2 (Rattus norvegicus, UniProt Q00788); test: Luciferase reporter gene assay, rV2; assay type: cell-based
# T1 construct: host or cells: HEK-293 cells, transient
# adult male Wistar rats = test: Skin blood flow and blood lactate in anesthetized rats (IV infusion); assay type: in vivo, rat
# Description: This study was performed over multiple experiments using a total of 48 adult male Wistar rats. Compounds were dissolved in 2.5% dextrose and 0.45% sodium chloride on the day of the study, at concentrations allowing administration of the desired dose at an infusion rate of 20 μL/kg/min (0.15-150 μmoL/μL). Compounds were infused via an IV catheter at six sequentially increasing doses. A group of vehicle-administered animals received vehicle throughout the study and data were reported from intervals timed analogously with the dose-response in compound 1-administered animals.
# On the day of experimentation animals were anesthetized and instrumented. […] Ventilation was initiated, and baseline readings for the primary parameter of skin blood flow (SBF) were recorded. Readings for the secondary parameters were also recorded: (1) blood lactate concentration, (2) mean arterial pressure (MAP), and (3) blood pH. Data collection was performed continuously for SBF and MAP using NOTOCORD-hem™ (Instem), and blood samples were taken at each compound dose and immediately analyzed using an i-STAT® meter.
# After the final dose administration, animals were euthanized and a final SBF measurement was recorded to detect any signal from the flow probe after the animal's heart stopped beating to control for a signal not attributed to blood flow. […]
smiles,measurement,setting,value
"NC(=O)CC[C@@H]1NC(=O)[C@H](Cc2ccccc2)NC(=O)[C@H](Cc2ccc(O)cc2)NC(=O)[C@@H](N)CSSC[C@@H](C(=O)N2CCC[C@H]2C(=O)N[C@@H](CCCN=C(N)N)C(=O)NCC(N)=O)NC(=O)[C@H](CC(N)=O)NC1=O [AVP, arginine vasopressin]",EC50,rV2,0.04 nM
same,"Emax, skin blood flow decrease",adult male Wistar rats,91.8%
